Reference: patent US12404261B2, “Compounds and compositions for treating conditions associated with cGAS” (Novartis AG, priority 2020, dated 2025)

Protein sequences, listed by entry. Tags and fused reporters are not part of them. Residues count along the entry.
UniProt Q8N884, 147-522: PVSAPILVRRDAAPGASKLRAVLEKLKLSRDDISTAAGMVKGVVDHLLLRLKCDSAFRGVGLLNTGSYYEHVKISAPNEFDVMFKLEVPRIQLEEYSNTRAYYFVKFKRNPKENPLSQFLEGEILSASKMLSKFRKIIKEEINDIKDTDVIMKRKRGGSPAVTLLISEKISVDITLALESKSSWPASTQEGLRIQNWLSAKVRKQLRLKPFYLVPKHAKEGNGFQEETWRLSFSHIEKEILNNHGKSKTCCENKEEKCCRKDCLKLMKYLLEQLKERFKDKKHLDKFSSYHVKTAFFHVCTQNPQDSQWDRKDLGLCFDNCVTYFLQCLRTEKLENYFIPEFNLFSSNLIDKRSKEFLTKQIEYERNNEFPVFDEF

Biological target: human truncated cGAS enzyme (147-522 human cGAS) (Homo sapiens (Human), UniProt Q8N884)
Test: Quantification of cGAS protein inhibition (cGAMP formation measured by LC-MS/MS)
Type: biochemical
Conditions: reported for the potential mixture of co-existing tautomers and/or racemates
Description: A reagent buffer was prepared in filtered and autoclaved water according to the following: • 50 mM Tris-buffer pH 7.5 (1 M Tris-buffer pH 7.5, Invitrogen, Cat. No. 15567-027); • 50 mM NaCl (5 M NaCl, Sodium Chloride Solution, Sigma, 59222C-); • 5 mM MgCl2 (1 M MgCl2, Sigma, M1028); • 0.1 mM ZnCl2 (Zinc Chloride [7646-85-7], powder, Cell Culture Tested, Sigma, Z-0152); and • 0.001% Tween 20 (TWEEN 20, Sigma Aldrich, P1379-).
A buffer for the cGAS enzyme was prepared in filtered and autoclaved water according to the following: • 50 mM Tris-buffer pH 7.5; • 5 mM MgCl2; and • 0.001% Tween 20.
Compounds were dispensed to a 386 well plate. […]
The concentration of cGAMP was measured on a LC-MS/MS system consisting of a THERMO Dionex Ultimate LC system with a high pressure pump, an autosampler, a column heating compartment (Reinach, Switzerland) and a SCIEX Triple Quad 5500 (Framingham, MA, USA) mass spectrometer for detection. […] The MS parameters were optimized based on the properties of the compounds to be detected and run in positive multi-reaction mode (MRM) based on the mass transitions. […] All data were analyzed with Excel; and the dose response curves were generated using the auto fitting function of XLfit. The IC50 was determined by plotting the cGAMP concentration ratio (cGAMP divided by the internal standard [^15Ns]-2′3′-cGAMP) versus the concentration of compound.

## COc1cc2c(-c3cn[nH]c3)c(-c3nnc(C(C)N(C)C)[nH]3)[nH]c2c(F)c1Cl (stereo not shown) [Example 79, 1-(5-(6-chloro-7-fluoro-5-methoxy-3-(1H-pyrazol-4-yl)-1H-indol-2-yl)-4H-1,2,4-triazol-3-yl)-N,N-dimethylethan-1-amine]
  IC50: 30 nM
